From PMC8802549 (The Journal of Immunology Author Choice, 2022) come the findings set out here.

Amino acid sequences for entries named in this document (tags omitted).
UniProt P01888, whole entry, looked up: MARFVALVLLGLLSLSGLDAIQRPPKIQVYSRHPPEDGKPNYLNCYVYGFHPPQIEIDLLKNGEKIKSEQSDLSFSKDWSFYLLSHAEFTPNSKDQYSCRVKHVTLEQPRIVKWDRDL

As usually defined, the Kd is a measure of binding affinity in units of concentration. Read a high Kd as a looser complex.

Where two headings read alike, the source gives them in different places.

In assay [1] the target is BoLA-1*023:01 MHC class I molecule with bovine β2-microglobulin (bovine) (UniProt P01888). Nature of the assay: ELISA.
The target is the same in assay [2]. As to the kind of experiment: ELISA. The source holds these as a separate data set. (ELISA stands for enzyme-linked immunosorbent assay.)

Tp9_(67–75) Muguga epitope peptide: the Kd in assay [1] amounted to 37.1 nM; in assay [2], 22.4 nM.
